Consider one molecule from ChEMBL document CHEMBL1152937, “Carbonic anhydrase inhibitors. Inhibition and homology modeling studies of the fungal beta-carbonic anhydrase from Candida albicans with sulfonamides” (Bioorg Med Chem, 2009).

The target in the test is T1, Carbonic anhydrase (Candida albicans (strain SC5314 / ATCC MYA-2876) (Yeast), UniProt Q5AJ71).
T1 sequence (Q5AJ71 whole entry): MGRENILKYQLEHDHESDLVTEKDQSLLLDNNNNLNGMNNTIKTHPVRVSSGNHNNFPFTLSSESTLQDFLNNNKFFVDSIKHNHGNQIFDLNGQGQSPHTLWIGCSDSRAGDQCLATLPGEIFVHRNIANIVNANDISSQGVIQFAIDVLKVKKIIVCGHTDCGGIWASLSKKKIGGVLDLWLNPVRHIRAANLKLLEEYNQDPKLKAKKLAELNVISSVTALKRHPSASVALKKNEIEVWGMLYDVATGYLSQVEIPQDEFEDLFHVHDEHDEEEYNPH

What is called Ki is a dissociation constant, usually derived from enzyme kinetics or from competition with a known ligand. Higher therefore signals weaker binding. In turn, `NS(=O)(=O)c1ccc(S(=O)(=O)Nc2cccc3c(Cl)c[nH]c23)cc1` registered a Ki of 1090 nM.
